The values below come from US20090099157A1, “TETRAHYDRO-PYRAZOLO-PYRIDINE THIOETHER MODULATORS OF CATHEPSIN S” (priority 2007, published 2009).

Sequences of proteins named here, by UniProt entry; tags and fusion partners are left off. Residues count along the entry.
UniProt P25774, 115-331: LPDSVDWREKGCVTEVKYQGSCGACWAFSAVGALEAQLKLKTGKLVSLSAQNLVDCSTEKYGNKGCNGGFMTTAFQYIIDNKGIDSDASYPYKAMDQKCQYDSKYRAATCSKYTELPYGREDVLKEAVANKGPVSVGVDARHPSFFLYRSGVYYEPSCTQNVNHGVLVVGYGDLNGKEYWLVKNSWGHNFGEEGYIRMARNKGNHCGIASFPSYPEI

This assay concerns the target Recombinant human cathepsin S (CatS) (Homo sapiens, UniProt P25774). Description: biochemical.

In general, IC50 refers to the concentration that gives 50% inhibition. Take `COc1ccccc1C1CCN(CC(O)Cn2nc(-c3ccc(C(F)(F)F)c(SCCN4CCOCC4)c3)c3c2CCN(S(C)(=O)=O)C3)CC1` (stereo not shown) [Example 779, 1-{4-[2-(Methyloxy)phenyl]piperidin-1-yl}-3-[5-(methylsulfonyl)-3-{3-[(2-morpholin-4-ylethyl)sulfanyl]-4-(trifluoromethyl)phenyl}-4,5,6,7-tetrahydro-1H-pyrazolo[4,3-c]pyridin-1-yl]propan-2-ol]: the IC50 was found to be 40 nM.

On to `CN1CCN(CC(O)Cn2nc(-c3ccc(C(F)(F)F)c(SCCN4CCCCC4)c3)c3c2CCN(S(C)(=O)=O)C3)CC1` (stereo not shown) [Example 163, 1-(4-Methylpiperazin-1-yl)-3-[5-(methylsulfonyl)-3-{3-[(2-piperidin-1-ylethyl)sulfanyl]-4-(trifluoromethyl)phenyl}-4,5,6,7-tetrahydro-1H-pyrazolo[4,3-c]pyridin-1-yl]propan-2-ol], for which the IC50 came to 1150 nM.

As to `CS(=O)(=O)N1CCc2c(c(-c3ccc(C(F)(F)F)c(SCC(=O)N4CCOCC4)c3)nn2CC(O)CN2CCC(c3ccncc3)CC2)C1` (stereo not shown) [Example 714, 1-[5-(Methylsulfonyl)-3-{3-[(2-morpholin-4-yl-2-oxoethyl)sulfanyl]-4-(trifluoromethyl)phenyl}-4,5,6,7-tetrahydro-1H-pyrazolo[4,3-c]pyridin-1-yl]-3-(4-pyridin-4-ylpiperidin-1-yl)propan-2-ol], the IC50 amounted to 20 nM.

As for `CN(C)c1ccc2c(n1)n(C1CCN(CC(O)Cn3nc(-c4ccc(C(F)(F)F)c(SCCN5CCCCC5)c4)c4c3CCN(S(C)(=O)=O)C4)CC1)c(=O)n2C` (stereo not shown) [Example 154, 5-(Dimethylamino)-3-(1-{2-hydroxy-3-[5-(methylsulfonyl)-3-{3-[(2-piperidin-1-ylethyl)sulfanyl]-4-(trifluoromethyl)phenyl}-4,5,6,7-tetrahydro-1H-pyrazolo[4,3-c]pyridin-1-yl]propyl}piperidin-4-yl)-1-methyl-1,3-dihydro-2H-imidazo[4,5-b]pyridin-2-one], the IC50 worked out at 10 nM.

Turning to `O=C(CSc1cc(-c2nn(CC(O)CN3CCN(c4ccccc4O)CC3)c3c2CNCC3)ccc1C(F)(F)F)N1CCCC1` (stereo not shown) [Example 380, 2-{4-[2-Hydroxy-3-(3-{3-[(2-oxo-2-pyrrolidin-1-ylethyl)sulfanyl]-4-(trifluoromethyl)phenyl}-4,5,6,7-tetrahydro-1H-pyrazolo[4,3-c]pyridin-1-yl)propyl]piperazin-1-yl}phenol], the half-inhibitory concentration (IC50) is 310 nM.

Regarding `CS(=O)(=O)N1CCc2c(c(-c3ccc(C(F)(F)F)c(SCCN4CCC(F)CC4)c3)nn2C[C@@H](O)CN2C=NCCC2)C1` [Example 394, (2S)-1-(5,6-Dihydropyrimidin-1(4H)-yl)-3-{3-[3-{[2-(4-fluoropiperidin-1-yl)ethyl]sulfanyl}-4-(trifluoromethyl)phenyl]-5-(methylsulfonyl)-4,5,6,7-tetrahydro-1H-pyrazolo[4,3-c]pyridin-1-yl}propan-2-ol], the IC50 was 310 nM.

In the case of `CS(=O)(=O)N1CCc2c(c(-c3ccc(C(F)(F)F)c(SCCN4CCCC4)c3)nn2CC(O)CN2CCC(N3CCCC3=O)CC2)C1` (stereo not shown) [Example 639, 1-(1-{2-Hydroxy-3-[5-(methylsulfonyl)-3-{3-[(2-pyrrolidin-1-ylethyl)sulfanyl]-4-(trifluoromethyl)phenyl}-4,5,6,7-tetrahydro-1H-pyrazolo[4,3-c]pyridin-1-yl]propyl}piperidin-4-yl)pyrrolidin-2-one], the half-maximal inhibitory concentration (IC50) came out at 85 nM.

On to `CS(=O)(=O)N1CCc2c(c(-c3ccc(C(F)(F)F)c(SCCN4CCCCC4)c3)nn2CCCN2CCC(N3CCCC3=O)CC2)C1` [Example 5, 1-[1-(3-{5-Methanesulfonyl-3-[3-(2-piperidin-1-yl-ethylsulfanyl)-4-trifluoromethyl-phenyl]-4,5,6,7-tetrahydro-pyrazolo[4,3-c]pyridin-1-yl}-propyl)-piperidin-4-yl]-pyrrolidin-2-one], for which the IC50 worked out at 170 nM.

As for `NC(=O)C1CCN(CC(O)Cn2nc(-c3ccc(C(F)(F)F)c(SCCN4CCCCC4)c3)c3c2CCNC3)CC1` (stereo not shown) [Example 309, 1-[2-Hydroxy-3-(3-{3-[(2-piperidin-1-ylethyl)sulfanyl]-4-(trifluoromethyl)phenyl}-4,5,6,7-tetrahydro-1H-pyrazolo[4,3-c]pyridin-1-yl)propyl]piperidine-4-carboxamide], the concentration for half-maximal inhibition (IC50) was determined as 3860 nM.

As for `CC(=O)NC1CCN(CCSc2cc(-c3nn(C[C@@H](O)CN4CCOCC4)c4c3CN(S(C)(=O)=O)CC4)ccc2C(F)(F)F)CC1` [Example 285], the IC50 is 2650 nM.

For the compound `CS(=O)(=O)N1CCc2c(c(-c3ccc(C(F)(F)F)c(SCC(=O)N4CC=C(c5ccccc5)CC4)c3)nn2CC(O)CN2CCC(N3CCCC3=O)CC2)C1` (stereo not shown) [Example 68, 1-{1-[2-Hydroxy-3-(5-methanesulfonyl-3-{3-[2-oxo-2-(4-phenyl-3,6-dihydro-2H-pyridin-1-yl)-ethylsulfanyl]-4-trifluoromethyl-phenyl}-4,5,6,7-tetrahydro-pyrazolo[4,3-c]pyridin-1-yl)-propyl]-piperidin-4-yl}-pyrrolidin-2-one], the IC50 turned out to be 500 nM.

Regarding `CS(=O)(=O)N1CCc2c(c(-c3ccc(C(F)(F)F)c(SCC(=O)N4CCOCC4)c3)nn2CC(O)CN2CCC(n3cn[nH]c3=O)CC2)C1` (stereo not shown) [Example 751, 4-(1-{2-Hydroxy-3-[5-(methylsulfonyl)-3-{3-[(2-morpholin-4-yl-2-oxoethyl)sulfanyl]-4-(trifluoromethyl)phenyl}-4,5,6,7-tetrahydro-1H-pyrazolo[4,3-c]pyridin-1-yl]propyl}piperidin-4-yl)-2,4-dihydro-3H-1,2,4-triazol-3-one], the IC50 was determined as 30 nM.

For the compound `C[C@H]1COCCN1CCSc1cc(-c2nn(CCCN3CCCCC3)c3c2CN(S(C)(=O)=O)CC3)ccc1C(F)(F)F` [Example 145, 3-[3-({2-[(3S)-3-Methylmorpholin-4-yl]ethyl}sulfanyl)-4-(trifluoromethyl)phenyl]-5-(methylsulfonyl)-1-(3-piperidin-1-ylpropyl)-4,5,6,7-tetrahydro-1H-pyrazolo[4,3-c]pyridine], the IC50 was 1080 nM.

With `CS(=O)(=O)N1CCc2c(c(-c3ccc(C(F)(F)F)c(SCCN4CCOCC4)c3)nn2CC(O)CN2CCC(Oc3ccccn3)CC2)C1` (stereo not shown) [Example 732, 1-[5-(Methylsulfonyl)-3-{3-[(2-morpholin-4-ylethyl)sulfanyl]-4-(trifluoromethyl)phenyl}-4,5,6,7-tetrahydro-1H-pyrazolo[4,3-c]pyridin-1-yl]-3-[4-(pyridin-2-yloxy)piperidin-1-yl]propan-2-ol], the IC50 came out at 120 nM.

For the compound `O=C([C@@H](O)c1ccccc1)N1CCc2c(c(-c3ccc(C(F)(F)F)c(SCCN4CCC(F)CC4)c3)nn2CC(O)CN2CCCCC2)C1` (stereo partly drawn) [Example 653, 1-{3-[3-{[2-(4-Fluoropiperidin-1-yl)ethyl]sulfanyl}-4-(trifluoromethyl)phenyl]-5-[(2S)-2-hydroxy-2-phenylacetyl]-4,5,6,7-tetrahydro-1H-pyrazolo[4,3-c]pyridin-1-yl}-3-piperidin-1-ylpropan-2-ol], the concentration for half-maximal inhibition (IC50) was 400 nM.

Consider `CC(=O)NC1CCN(CCCn2nc(-c3ccc(C(F)(F)F)c(SCCO)c3)c3c2CCN(S(C)(=O)=O)C3)CC1` [Example 2, N-[1-(3-{3-[3-(2-Hydroxy-ethylsulfanyl)-4-trifluoromethyl-phenyl]-5-methanesulfonyl-4,5,6,7-tetrahydro-pyrazolo[4,3-c]pyridin-1-yl}-propyl)-piperidin-4-yl]-acetamide], for which the IC50 came to 280 nM.
